In patent US12544388B2, “Compound for treating and/or preventing diseases caused by coronavirus and use thereof” (SHANGHAITECH UNIVERSITY, priority 2020, dated 2026) one finds IC50 data, which are given here for one compound.

As a reminder, the IC50 is the point on the concentration scale where inhibition reaches its midpoint.

The target of the experiment is SARS-CoV-2 papain-like protease (Severe acute respiratory syndrome coronavirus 2, UniProt P0DTD1). Type of experiment: biochemical. The settings on record: read-out: IC50, inhibitory activity on novel coronavirus papain-like protease.

For `Cc1coc2c1C(=O)C(=O)c1c-2ccc2c(C)cccc12` [tanshinone I, Tanshinone I], the IC50 was found to be 2210 nM.
